Molecular target: T1, human TNFα (Homo sapiens, UniProt P01375)
T1 construct: purchased Biosource, Camarillo, Calif
Assay: p55 Receptor/IgG fusion protein binding assay (inhibition of TNFα capture by p55-Ig coated plate)
Conditions: positive control, final cA2 Fab concentration 500 ng/ml; typical value
Procedure: In order to screen compounds for their ability to block TNFα binding to the TNF p55 receptor, an assay has been designed using TNFα and a p55/IgG fusion protein in place of monovalent, non-fusion p55 TNF receptor protein. This assay was designed to identify peptides which bind to human TNFα and thereby prevent the capture of the TNFα by a microtiter plate coated with p55-Ig fusion protein. A constant concentration of human TNFα is preincubated with the test peptide and then incubated on the p55-Ig coated microtiter wells. Bound TNFα is detected using a specific antisera and an alkaline phosphatase-conjugated probe. An active peptide will reduce the amount of human TNFα bound to the well relative to control wells in which TNFα but no peptide was added. […]
To detect TNFα captured by the p55-Ig plate, all wells were incubated in succession with polyclonal rabbit anti-human TNFα (Genzyme, Boston, Mass.; 1:500 in assay buffer, 50 μl/well), biotinylated goat anti-rabbit Ig (H&L) (Vector Laboratories, Burlingame, Calif.; 1 μg/ml in assay buffer, 50 μl/well) and streptavidin-alkaline phosphatase conjugate (Pierce, Rockford, Ill.; 1 μg/ml in assay buffer, 50 μl/well). […] The optical density (OD) at 405 nm was measured on a microtiter plate reader (Molecular Devices Vmax plate reader), with the plate blank wells subtracted as background. […]

Protein sequences, listed by entry. Tags and fused reporters are not part of them. Residues count along the entry.
UniProt P01375, 77-233 limits assumed: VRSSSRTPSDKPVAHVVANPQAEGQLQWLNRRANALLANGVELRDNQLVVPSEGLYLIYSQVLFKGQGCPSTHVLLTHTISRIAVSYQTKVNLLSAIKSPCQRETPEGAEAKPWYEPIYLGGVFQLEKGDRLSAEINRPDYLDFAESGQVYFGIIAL

## cA2 Fab: Fab fragment of the mouse/human monoclonal anti-human TNFα antibody cA2 (positive control) [reference compound]
  percent inhibition of TNFα capture by the p55-Ig plate: ≥ 75%

From patent US5641751A, “Tumor necrosis factor inhibitors” (Centocor, Inc., priority 1995, dated 1997)
